Earlier results, collected in patent US20240115678A1, “PERSONALIZED […] CANCER THERAPY” (priority 2022, published 2024).

What was measured:
[1] = tested on: metastatic colorectal cancer; settings: added to bevacizumab and chemotherapy

| Substance | survival [1] | plasma ascorbate levels recovered (Responders (n=3), Phases 2 and 3) | drop of mean plasma ascorbic acid level (after first phase, high-dose interleukin 2 alone) | mean plasma ascorbic acid level (after first phase, high-dose interleukin 2 alone, 11 advanced cancer patients) | blood pantothenate and plasma vitamin E (all 11 patients, throughout the phases of therapy) | plasma ascorbic acid, undetectable (in eight of 11 patients during remainder of treatment) |
| --- | --- | --- | --- | --- | --- | --- |
| cetuximab: anti-epidermal growth factor receptor (EGFR) monoclonal antibody | decreased survival | – | – | – | – | – |
| interleukin 2: high-dose i.v. interleukin 2, later with autologous lymphokine-activated killer cells | – | at least 0.1 mg/dl | 80% | 0.13 ± 0.08 mg/dL | remained within normal limits | less than 0.05 mg/dl |
